For orientation: Ki means the equilibrium dissociation constant of an inhibitor or competing ligand from its target.

Sequences of proteins named here, by UniProt entry; tags and fusion partners are left off.
UniProt P41594, whole entry: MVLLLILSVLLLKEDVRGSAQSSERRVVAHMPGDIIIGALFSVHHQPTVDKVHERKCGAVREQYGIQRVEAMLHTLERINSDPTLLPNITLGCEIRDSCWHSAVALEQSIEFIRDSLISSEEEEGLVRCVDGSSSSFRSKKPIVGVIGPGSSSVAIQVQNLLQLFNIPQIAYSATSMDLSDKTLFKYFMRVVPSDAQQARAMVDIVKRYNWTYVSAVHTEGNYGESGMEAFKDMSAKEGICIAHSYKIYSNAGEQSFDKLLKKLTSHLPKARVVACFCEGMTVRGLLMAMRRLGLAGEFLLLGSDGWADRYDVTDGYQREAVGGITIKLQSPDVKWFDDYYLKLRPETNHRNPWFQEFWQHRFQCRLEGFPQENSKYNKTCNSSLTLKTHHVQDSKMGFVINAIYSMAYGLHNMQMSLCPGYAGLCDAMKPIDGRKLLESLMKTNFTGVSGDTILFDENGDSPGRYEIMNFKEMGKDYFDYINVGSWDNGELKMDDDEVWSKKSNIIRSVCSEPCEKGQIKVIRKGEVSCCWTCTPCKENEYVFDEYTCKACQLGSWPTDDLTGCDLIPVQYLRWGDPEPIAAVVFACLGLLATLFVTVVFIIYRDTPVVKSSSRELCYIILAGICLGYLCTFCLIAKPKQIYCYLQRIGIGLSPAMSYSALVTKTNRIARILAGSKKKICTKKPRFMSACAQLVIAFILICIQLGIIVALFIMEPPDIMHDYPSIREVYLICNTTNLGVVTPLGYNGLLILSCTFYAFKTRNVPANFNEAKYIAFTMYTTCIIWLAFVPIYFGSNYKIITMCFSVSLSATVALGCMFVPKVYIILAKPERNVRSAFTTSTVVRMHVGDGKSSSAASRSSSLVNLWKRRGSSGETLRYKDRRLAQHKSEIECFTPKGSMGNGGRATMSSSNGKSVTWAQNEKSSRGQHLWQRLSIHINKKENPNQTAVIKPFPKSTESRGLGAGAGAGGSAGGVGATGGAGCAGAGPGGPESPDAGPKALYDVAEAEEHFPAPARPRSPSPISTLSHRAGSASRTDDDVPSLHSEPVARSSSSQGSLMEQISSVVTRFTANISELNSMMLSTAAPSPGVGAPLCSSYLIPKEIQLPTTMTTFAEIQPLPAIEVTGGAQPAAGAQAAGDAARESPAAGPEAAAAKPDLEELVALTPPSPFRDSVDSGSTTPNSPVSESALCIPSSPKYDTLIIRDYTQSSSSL
UniProt P31424, whole entry: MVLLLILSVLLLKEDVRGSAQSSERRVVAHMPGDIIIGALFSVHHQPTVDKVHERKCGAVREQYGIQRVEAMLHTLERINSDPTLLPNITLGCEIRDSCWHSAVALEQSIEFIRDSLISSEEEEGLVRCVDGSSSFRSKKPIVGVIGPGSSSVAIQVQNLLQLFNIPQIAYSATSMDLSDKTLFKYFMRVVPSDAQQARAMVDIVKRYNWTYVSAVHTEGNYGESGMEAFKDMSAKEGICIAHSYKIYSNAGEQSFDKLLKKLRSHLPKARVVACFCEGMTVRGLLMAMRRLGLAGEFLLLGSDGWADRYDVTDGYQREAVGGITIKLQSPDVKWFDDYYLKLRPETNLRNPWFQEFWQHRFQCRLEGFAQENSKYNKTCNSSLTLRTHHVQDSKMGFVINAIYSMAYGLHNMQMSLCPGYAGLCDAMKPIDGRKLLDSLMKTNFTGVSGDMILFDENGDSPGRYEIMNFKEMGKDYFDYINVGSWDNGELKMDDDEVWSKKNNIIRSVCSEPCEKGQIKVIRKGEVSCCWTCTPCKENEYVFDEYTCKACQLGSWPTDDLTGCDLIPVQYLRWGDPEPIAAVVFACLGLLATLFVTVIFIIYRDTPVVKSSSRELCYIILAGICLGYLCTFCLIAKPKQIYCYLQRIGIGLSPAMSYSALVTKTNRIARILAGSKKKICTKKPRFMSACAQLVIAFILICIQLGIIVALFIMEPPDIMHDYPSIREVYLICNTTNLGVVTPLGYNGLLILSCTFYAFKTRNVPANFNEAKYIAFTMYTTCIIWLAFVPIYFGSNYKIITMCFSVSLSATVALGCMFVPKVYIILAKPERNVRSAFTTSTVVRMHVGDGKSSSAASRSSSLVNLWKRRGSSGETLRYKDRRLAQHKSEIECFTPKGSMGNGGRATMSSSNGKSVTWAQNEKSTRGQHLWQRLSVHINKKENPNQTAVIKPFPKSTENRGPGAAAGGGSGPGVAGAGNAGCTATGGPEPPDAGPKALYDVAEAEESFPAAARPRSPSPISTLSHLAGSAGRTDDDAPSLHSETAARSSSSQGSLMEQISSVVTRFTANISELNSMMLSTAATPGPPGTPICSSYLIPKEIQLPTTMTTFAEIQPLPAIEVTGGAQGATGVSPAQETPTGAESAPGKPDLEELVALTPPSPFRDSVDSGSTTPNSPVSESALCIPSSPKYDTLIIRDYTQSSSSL

Values joined by “and” are separate entries in the source; they are usually repeats but may differ in a detail not shown here. Identical values can stand only once.

The target of assay [1] is Metabotropic glutamate receptor 5 (Homo sapiens, UniProt P41594).
For assay [2], the target named is Metabotropic glutamate receptor 5 (Rattus norvegicus, UniProt P31424).

With `Cc1cccc(C#Cc2ccccc2)n1` [2-Methyl-6-phenylethynyl-pyridine], the inhibitory constant (Ki) in assay [1] is 6.7 nM and 3.3 nM and 28 nM; in assay [2], 8.7 nM and 3.1 nM.
Consider `Cc1nc(C#Cc2cccnc2)cs1` [3-(2-(2-methylthiazol-4-yl)ethynyl)pyridine], for which the Ki in assay [1] was 14.1 nM and 5.3 nM; in assay [2], 17.8 nM and 5.4 nM.

For the origin of these results see BindingDB's records for doi:10.1124/jpet.105.089839 (F. Hoffmann-La Roche, 2005).
